ChEMBL document CHEMBL3860107, “Discovery of [5-Amino-1-(2-methyl-3H-benzimidazol-5-yl)pyrazol-4-yl]-(1H-indol-2-yl)methanone (CH5183284/Debio 1347), An Orally Available and Selective Fibroblast Growth Factor Receptor (FGFR) Inhibitor” (J Med Chem, 2016)

By UniProt entry, the sequences of proteins in these tests, tags left out.
UniProt P35968, whole entry: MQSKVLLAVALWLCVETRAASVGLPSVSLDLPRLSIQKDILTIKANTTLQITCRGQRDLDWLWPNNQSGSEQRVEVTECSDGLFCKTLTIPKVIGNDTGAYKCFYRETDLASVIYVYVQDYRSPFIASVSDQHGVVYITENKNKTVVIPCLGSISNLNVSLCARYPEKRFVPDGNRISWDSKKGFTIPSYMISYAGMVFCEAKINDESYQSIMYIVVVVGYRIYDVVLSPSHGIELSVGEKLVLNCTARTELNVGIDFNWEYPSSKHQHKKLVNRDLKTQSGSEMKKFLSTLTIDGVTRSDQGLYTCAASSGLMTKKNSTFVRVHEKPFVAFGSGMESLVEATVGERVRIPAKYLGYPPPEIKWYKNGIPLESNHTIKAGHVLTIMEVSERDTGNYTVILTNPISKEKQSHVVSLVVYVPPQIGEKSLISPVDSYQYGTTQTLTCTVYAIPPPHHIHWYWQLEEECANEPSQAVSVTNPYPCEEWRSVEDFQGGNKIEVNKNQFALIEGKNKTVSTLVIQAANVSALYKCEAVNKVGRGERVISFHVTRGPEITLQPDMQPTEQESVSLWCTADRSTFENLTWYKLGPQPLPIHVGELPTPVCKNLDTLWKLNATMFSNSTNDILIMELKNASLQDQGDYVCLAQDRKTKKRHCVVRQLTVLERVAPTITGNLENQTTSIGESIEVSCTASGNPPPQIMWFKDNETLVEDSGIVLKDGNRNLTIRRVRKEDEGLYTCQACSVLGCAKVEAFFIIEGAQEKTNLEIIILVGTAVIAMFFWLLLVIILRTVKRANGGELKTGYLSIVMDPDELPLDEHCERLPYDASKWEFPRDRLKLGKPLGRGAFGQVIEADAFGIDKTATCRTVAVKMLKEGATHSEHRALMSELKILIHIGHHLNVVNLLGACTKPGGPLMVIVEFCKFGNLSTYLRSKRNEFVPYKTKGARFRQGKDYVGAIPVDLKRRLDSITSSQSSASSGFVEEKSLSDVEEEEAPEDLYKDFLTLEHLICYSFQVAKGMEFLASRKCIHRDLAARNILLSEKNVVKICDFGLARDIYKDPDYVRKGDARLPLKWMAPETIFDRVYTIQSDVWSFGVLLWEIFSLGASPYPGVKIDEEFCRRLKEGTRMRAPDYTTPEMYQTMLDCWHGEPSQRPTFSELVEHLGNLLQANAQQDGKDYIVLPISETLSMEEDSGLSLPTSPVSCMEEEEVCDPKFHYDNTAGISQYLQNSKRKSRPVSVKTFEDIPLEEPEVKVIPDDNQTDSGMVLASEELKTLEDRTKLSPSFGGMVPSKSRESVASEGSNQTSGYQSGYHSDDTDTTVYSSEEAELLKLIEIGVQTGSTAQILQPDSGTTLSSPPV

Molecular target: Vascular endothelial growth factor receptor 2 (Homo sapiens, UniProt P35968)

IC50: 52 nM
Compound: Nc1c(C(=O)c2cc3ccccc3[nH]2)cnn1-c1ccc2[nH]ccc2c1
